{"source": "patent US7989632B2", "about": "“Crystalline forms of solvated ilaprazole” (Il Yang Pharmaceutical Company, Ltd., priority 2006, dated 2011)", "assay": "Dynamic Vapor Sorption/Desorption (DVS) isotherm", "assay_type": "physicochemical", "experimental": "Dynamic Vapor Sorption/Desorption (DVS): Data were collected on a VTI SGA-100 moisture balance system. For sorption isotherms, a sorption range of 5 to 95% relative humidity (RH) and a desorption range of 95 to 5% RH in 10% RH increments were used for analysis. The samples were not dried prior to analysis. Equilibrium criteria used for analysis were less than 0.0100% weight change in 5 minutes with a maximum equilibration time of 3 hours if the weight criterion was not met. Data were not corrected for the initial moisture content of the samples."}
{"substance": "crystalline methanol/racemic ilaprazole solvate [Form G]", "values": [{"measurement": "DVS weight loss at 5% RH", "setting": "at 5% RH, samples not dried prior to analysis", "result": "~4.6", "unit": "%"}, {"measurement": "DVS weight loss from 95 to 5% RH", "setting": "desorption, 95 to 5% RH", "result": "~3.9", "unit": "%"}, {"measurement": "DVS weight gain from 5 to 95% RH", "setting": "sorption, 5 to 95% RH", "result": "~3.9", "unit": "%"}]}
